According to US10137134B2, “Molybdenum compounds for use in the treatment of cyanide poisoning” (dated 2018):

Tests used:
[1] = system: freshly isolated rat hepatocytes; assay: Hepatocyte model, safety study (ATP activity correlated with survival); conditions: for % Survival: substance only: 0.15 mM antidote, 5 mM sodium thiosulfate or 1 mM potassium cyanide, 1 hr at 37° C
[2] = Catalytic activity testing: conversion of cyanide to thiocyanate with thiosulfate; conditions: 20 minutes, no molybdenum catalyst
[3] = Stoichiometric activity testing: reaction of complexes with cyanide to thiocyanate; conditions: for Measured Concentration [SCN−](aq): veronal buffer pH 7.4, one equivalent of cyanide, one hour reaction time, complex about 0.08-0.10 mM
PT45 (pancreas cancer) = assay: In vitro toxicity, MTT assay, PT45; conditions: 72 hours, averages for four repeats
HT29 (colon cancer) = assay: In vitro toxicity, MTT assay, HT29; conditions: 72 hours, averages for four repeats
[4] = Solubility determination (saturated aqueous solution, absorbance); conditions: for Water Solubility: molar concentration multiplied by molecular weight; for Calc. Concentration [complex](aq): saturated solution in water
[5] = cited from earlier work
MCF-7 (breast cancer) = assay: In vitro toxicity, MTT assay, MCF-7; conditions: 72 hours, averages for four repeats

Compound: O=S(O)(O)=S
- % Survival [1]: 63.17%
- thiocyanate formation from cyanide and thiosulfate without the catalyst [2]: does not produce significant amount of thiocyanate

Compound: (Et4N)[CpMo2O2S4]
- Measured Concentration [SCN−](aq) [3]: 0.095 mM

Compound: O=C1C[SH]2CC(=O)[O][Mo]23(=[O])([O]1)[S][Mo]1(=[O])([S][S]1)[S]3 (stereo not drawn)
- survival (ATP activity), FIG. 6 ([1]; all of the concentrations tested): very well tolerated
- % Survival ([1]; Potassium Salt): over 95%
- % Survival ([1]; listed as Antidote, Potassium Salt): 95.3%
- % Survival ([1]; listed as antidote, Potassium Salt): 95%

Compound: cisplatin
- IC50 (PT45 (pancreas cancer)): 0.8 µM
- IC50 (HT29 (colon cancer)): 1 µM

Compound: K2[Mo2O2S2(cys)2]
- Water Solubility [4]: 136.0 mg/mL
- Calc. Concentration [complex](aq) [4]: 0.204 M
- Measured Concentration [SCN−](aq) [3]: 0.000 mM

Compound: CC(C)Cc1ccc(C(C)C(=O)O)cc1 (stereo not drawn)
- safe dose for children [5]: 10 mg/kg

Compound: Na[Mo2O2S4(leu)]
- Water Solubility [4]: 60.0 mg/mL
- Calc. Concentration [complex](aq) [4]: 0.120 M

Compound: (Et4N)[Mo2O2S4(C5H11NO2S)]
- survival (ATP activity), FIG. 5 ([1]; higher concentrations): reduced tolerance

Compound: [Mo2O2S2(NCS)4]^2−. Tetraethylammonium Salt
- IC50 (PT45 (pancreas cancer)): 83 µM
- IC50 (HT29 (colon cancer)): 374 µM
- IC50 (MCF-7 (breast cancer)): 262 µM

Compound: Na[Mo2O2S4(met)]
- Water Solubility [4]: 25.0 mg/mL
- Calc. Concentration [complex](aq) [4]: 0.049 M
- Measured Concentration [SCN−](aq) [3]: 0.108 mM

Compound: (Et4N)[Mo2O2S4(leu)]
- Measured Concentration [SCN−](aq) [3]: 0.082 mM

Compound: (Et4N)2[MoOS8]
- Amounts of thiocyanate formed in equivalents per mole complex ([3]; pH 7.4, 1 equivalent of cyanide reacted per mole complex): 0.5 equivalents per mole complex
- Amounts of thiocyanate formed in equivalents per mole complex ([3]; pH 7.4, 6 equivalents of cyanide reacted per mole complex): >2 equivalents per mole complex
- Amounts of thiocyanate formed in equivalents per mole complex ([3]; pH 9.2, 1 equivalent of cyanide reacted per mole complex): 0.9 equivalents per mole complex
- Amounts of thiocyanate formed in equivalents per mole complex ([3]; pH 9.2, 6 equivalents of cyanide reacted per mole complex): >2 equivalents per mole complex
